Yeast mating assay B: variants of the scFv Ab-14

Values reported by Li et al. 2023, doi:10.1038/s41467-023-39022-2 (FLAb copy).

All variants were tested on one target, the spike HR2 peptide PDVDLGDISGINAS (SARS-CoV-2).

Each scFv is VH, the linker GGGGSGGGGSGGGGS, VL, as in the parent Ab-14, and differs from it in the CDRs of the light chain only.
VH: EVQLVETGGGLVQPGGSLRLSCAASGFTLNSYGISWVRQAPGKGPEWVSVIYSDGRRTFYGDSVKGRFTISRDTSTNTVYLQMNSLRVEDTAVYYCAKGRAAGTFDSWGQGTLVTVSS
VL: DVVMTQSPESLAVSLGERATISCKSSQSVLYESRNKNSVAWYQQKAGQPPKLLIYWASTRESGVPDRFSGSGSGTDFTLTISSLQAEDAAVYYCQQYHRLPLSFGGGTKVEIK

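Phage display of a naive human antibody library on the peptide gave the parent. The variants were designed computationally from a first round of random CDR variants and then made and measured. Several design methods are mixed in this list. AlphaSeq pools MATa yeast showing the antibodies with MATalpha yeast showing the peptide. Binding brings cells together so that they mate, and sequencing counts the barcode pairs among the diploids. A regression on co-assayed BCL2-family reference pairs converts the normalised counts of each replicate to an apparent Kd. Each pool was mated in six replicate cultures.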

The parent's light chain CDRs are KSSQSVLYESRNKNSVA, WASTRES, QQYHRLPLS; each variant's own CDRs replace them letter for letter. Values are apparent Kd, the geometric mean of the replicates that gave a signal; lower means stronger binding. "not detected" marks a missing value. The strain was present, yet no cells mated with the target were sequenced in any replicate, which points to weak or no binding. A sequence measured in both rounds can read differently, since the two assays cover different ranges.

| CDR-L1 | CDR-L2 | CDR-L3 | apparent Kd | replicates with signal |
|---|---|---|---|---|
| KLSQSELYESRNKNSVA | NASTRLD | QQYHRLPLS | 1.2 nM | 6/6 |
| HMSDSIEKMASHARNIA | DEQTLAM | QQYYRLPLS | not detected | 0/6 |
| KFSQKVLYEGRNKNSVA | NASTRES | QQYHRLPLS | 1.8 nM | 6/6 |
| KLSQSVLYESHNKNSVA | QASTRES | QQYHHLPLS | 1.1 nM | 6/6 |
| KLSMQYRYESENKNSIA | ELVTRMS | QQYHRLPLS | 8.1 nM | 6/6 |
| KVSQSWLYESRNKNSVA | NASQRES | QSYHRLPLS | 3.4 nM | 4/6 |
| KLSMQDEYQSRNKNSVA | NASTRYS | QQYHRLPLS | 600 pM | 6/6 |
| MLSQMWAIGQKVSNSVA | QASMRFN | QQYDRLPLE | 58 nM | 5/6 |
| KLSQSMLYESRNKNSVA | HASTRCS | QQYHRLPLS | 1.1 nM | 6/6 |
| KVYQSELYESRNKNSVA | NASTRES | QQYHRLPLS | 720 pM | 6/6 |
| KISQMIRVGSTAMNSIA | EEVTRAK | QQYHRLPLA | 110 nM | 3/6 |
| NSSGPMMFESRNKNSVA | HASTREN | QQYERLPLS | 540 pM | 6/6 |
| MFSQLFMYGSRNYNSVA | QAETRES | QQYHRLPLI | 36 nM | 5/6 |
| KASQSWLYESRNKNSVA | GASSRES | QQYHRLPLS | 140 pM | 6/6 |
| KSSQSVLYESRNKNSVA | FASTRES | QQYHRLPLW | not detected | 0/6 |
| KLSQSMLYESRNKNSVA | DASTRMS | QQYHRLPLS | 470 pM | 6/6 |
| SMSNLQILPDVWKNSIA | DGEHVEY | QQYSRLPLT | 2.1 nM | 6/6 |
| KLMQSVWQESRNKNSVA | HASLREV | QAYHRLPLS | 120 nM | 6/6 |
| MVNGIMDHLSKQTNNVA | ETTTREE | QQYDRLPLT | 8.0 nM | 6/6 |
| TQSQSVLYESRNKNSVA | DASTRES | QQYHRLPLS | 4.5 nM | 6/6 |
| KSSQSVLYDSRNKNSVA | WASTRES | QQCHRLPLS | 140 nM | 1/6 |
| KLSQSDLYESRNKNSVA | NASQREE | QQYHRLPLS | 730 pM | 6/6 |
| IIAEQIMHVGIGANAIA | NATVRSA | QQYLRLPLM | 3.1 nM | 6/6 |
| MMSQVWGMGQRHRNNVA | QTSTRED | QQYDRLPLV | 5.6 nM | 6/6 |
| KMQQLWWYEQRNKNSVA | DGSTRES | QQYHRLPLS | 430 pM | 6/6 |
| KLLQNVMTEGRKRNNVA | HMDMRED | QQYWRLPLS | 73 nM | 6/6 |
| IVSQLMLWGMHVKNSIA | EAVTRVN | QQYDRLPLI | 1.3 µM | 1/6 |
| KLSQSELYESRNKNSVA | NASTRMK | QQYHRLPLS | 2.1 nM | 6/6 |
| KIELDLTRYNNSYSAIA | GETQKAQ | QQYSRLPLV | 27 nM | 6/6 |
| KSSQSVLYESRNMNSVA | WASTRES | QQYHRLPLS | 170 nM | 5/6 |
| KVSQSVLYESPNKNSVA | QASTRES | QQCHRLPLS | not detected | 0/6 |
| NLKEMNVDNQTKHSNIA | SADQTEK | QQYFRLPLQ | 10 nM | 6/6 |
| IVSQLMLWGYTAKNSIA | EAQTRVN | QQYDRLPLF | not detected | 0/6 |
| MLTMFPNEPTGDSSNIA | DTNQLNT | QQYQRLPFM | 7.4 nM | 6/6 |
| KAVQSELYESRNKNSVA | GASTRES | QQYHRLPLI | 2.4 nM | 6/6 |
| KLGDMVHTESRNKNSIA | DMRTREN | QQYYRLPLS | 600 pM | 6/6 |
| KSMWSVLYESNNKNSVA | HASTRED | QQYHRLPLS | 1.6 nM | 6/6 |
| KLSFSCLYESAMKNSVA | NASTRYS | QQYHRLPLS | 1.9 nM | 6/6 |
| KSQQSVLYESRNKNNVA | HASTRED | QQYERLPLS | 320 pM | 6/6 |
| KLSQSMEYESRNVNSVA | SASTRES | QQYHRLPLS | 1.1 nM | 6/6 |
| HITYGMYVSGRYKSNIA | QAETRAK | QQYDRLPLM | 3.7 nM | 6/6 |
| KMSQSVLYESRNKNSVA | NASTRES | QQYHRLPLS | 530 pM | 6/6 |
| KSSQSWLYESRNKNSVA | GASTRES | QVYHRLPLS | 36 nM | 6/6 |
| KLSQSMLYESRNKNSVA | NASQREV | QQYHRLPLS | 7.9 nM | 6/6 |
| TISQLTSMFSQNINNVA | EVSTREK | QQYDRLPLA | 1.9 nM | 6/6 |
| KFSQWVLYESRTKNSVA | DASTRES | QQYHRLPLS | 820 pM | 6/6 |
| KSTQSVLYESRNKNSVA | WASTRES | QQYARLPLS | 94 nM | 6/6 |
| KIQMWDNQVENQLGNVA | DASEYWE | QQYFQLPIS | 59 nM | 6/6 |
| KFEGSEGYGSRNKNSVA | EASHRMS | QQYHRLPLS | 1.4 nM | 6/6 |
| KSSQSVLYESRNHNSVA | WASLRES | QQYHRLPLS | 120 nM | 1/6 |
| FLAYASDQTGLQKNAIA | QVNLKEN | QQYMRLPLA | 34 nM | 6/6 |
| KSWQMVLYESRNKNSVA | WASTRES | QQYHRLPLS | 49 nM | 2/6 |
| MVTLQLRNGHELQNPIA | EASHKAA | QQYAHLPLG | 100 nM | 3/6 |
| KLQQSVLYESRNKNSVA | NASLRES | QQYHRLPLS | 860 pM | 6/6 |
| MMSMGFLGGMRAKNNVA | QESTRES | QQYHRLPLI | 50 nM | 5/6 |
| KLSQGVLMESRNKNSVA | EAGQREE | QQYHRLPLS | 230 pM | 6/6 |
| KYSQSELYESRNKNSVA | GASTRES | QQYHRLPLS | 630 pM | 6/6 |
| KLSQSNLYEDRNANNVA | NASQRES | QVYHRLPLS | 1.7 nM | 6/6 |
| KLSGSVLYESRNKNSVA | NASTREQ | QQYHRLPLS | 640 pM | 6/6 |
| KSSQSVLYESRNKESVA | WASTRES | QQYARLPES | not detected | 0/6 |
| KSSQSVLYESRNKNSVA | GASTRVS | QQYHHLPLS | 22 nM | 6/6 |
| RVTIISDPYMENRNNIA | QTSLRAH | QQYQMLPLA | 340 pM | 6/6 |
| KSSSSTLYESGMKNSVA | NASKRMS | QQYHRLPLS | 3.2 nM | 6/6 |
| KSSYSVLYESRNKNSVA | HASTREM | QQYHRLPLS | 15 nM | 6/6 |
| MVSQLMVWGLHTKNSIA | EAQTRIN | QQYDRLPLF | 26 nM | 1/6 |
| RFPEHLLMLESEIRNIA | NATKTME | QQYFRLPLV | 2.5 nM | 6/6 |
| KSSQSRMGESRNKNSVA | GASTRES | QQYHRLPLS | 64 nM | 5/6 |
| KSSQSVLYEGRNSNSVA | WASTREI | QQYHRLPLS | 130 nM | 6/6 |
| KSSQSCLNESRNKDSVA | WASTRES | QQYHRLPLS | 140 nM | 6/6 |
| KIQQSVYYESLNQNSVA | NASTRLQ | QQYHRLPLS | 3.3 nM | 6/6 |
| MVTQMAMTGMMSKRSVA | NASTREH | QQYHRLPLI | 52 nM | 6/6 |
| KLPQSCLYESRNKNSVA | EASTRES | QQYHRLPLS | 1.3 nM | 6/6 |
| QFSNVNMQGNAQWANVA | EATYAEE | QQYARLPLQ | 5.3 nM | 6/6 |

The 11 strongest on average among those seen in every replicate, once more:

| CDR-L1 | CDR-L2 | CDR-L3 | apparent Kd | replicates with signal |
|---|---|---|---|---|
| KASQSWLYESRNKNSVA | GASSRES | QQYHRLPLS | 140 pM | 6/6 |
| KLSQGVLMESRNKNSVA | EAGQREE | QQYHRLPLS | 230 pM | 6/6 |
| KSQQSVLYESRNKNNVA | HASTRED | QQYERLPLS | 320 pM | 6/6 |
| RVTIISDPYMENRNNIA | QTSLRAH | QQYQMLPLA | 340 pM | 6/6 |
| KMQQLWWYEQRNKNSVA | DGSTRES | QQYHRLPLS | 430 pM | 6/6 |
| KLSQSMLYESRNKNSVA | DASTRMS | QQYHRLPLS | 470 pM | 6/6 |
| KMSQSVLYESRNKNSVA | NASTRES | QQYHRLPLS | 530 pM | 6/6 |
| NSSGPMMFESRNKNSVA | HASTREN | QQYERLPLS | 540 pM | 6/6 |
| KLGDMVHTESRNKNSIA | DMRTREN | QQYYRLPLS | 600 pM | 6/6 |
| KLSMQDEYQSRNKNSVA | NASTRYS | QQYHRLPLS | 600 pM | 6/6 |
| KYSQSELYESRNKNSVA | GASTRES | QQYHRLPLS | 630 pM | 6/6 |

The authors averaged sequences with at least three values out of six and counted those with two or fewer as poor binders. Nonspecific signal, from three strains lacking the peptide, appeared in 4% of pairings of all light chain designs, centred on 430 nM (5% of these signals below 38 nM); values are not corrected for it.